Values of other authors in article PMC6747051, “Screening of Antiviral Components of Ma Huang Tang and Investigation on the Ephedra Alkaloids Efficacy on Influenza Virus Type A” (Frontiers in Pharmacology, 2019).

Settings: 40 mg/kg^-1 to 80 mg/kg^-1 ref Wang et al., 2001; cited from earlier work

Compound: CN[C@@H](C)[C@@H](O)c1ccccc1 [DPEP, D-pseudoephedrine]
- effect on the spontaneous activity of mice: no significant effect on the spontaneous activity

Compound: CN[C@@H](C)[C@H](O)c1ccccc1 [LEP, L-ephedrine]
- effect on the spontaneous activity of mice: no significant effect on the spontaneous activity
